# Tested on: Cc1ncc(C[n+]2csc(CCO)c2C)c(N)n1
# Assay: purified protein
# Settings: pH 7.2; 37.0 °C
substance,measurement,value
CcThi1 (Corallococcus sp. EGB),Km,22.3 µM
